Experimental findings from US20190093159A1 are described below.

In this assay the target is nucleosome with H3K4me3 and H4Kac5 (H4 K5/8/12/16/20ac) (human) (UniProt P62805). The assay can be described thus: GST pull-down of the barcoded nucleosome library, sequencing read-out, normalised to the H3K4me3 variant.

On to “GST-tagged BPTF-PHD-BD (from UniProt Q12830 2865-3033)”, for which the fold enhancement of binding efficiency compared to H3K4me3 alone was 7 fold.
